According to paper PMC8672774, “Discovery of cell active macrocyclic peptides with on-target inhibition of KRAS signaling” (Chemical Science, 2021):
Read-outs that look alike come from different tables or passages of the source.

How the values were obtained:
[1] = NanoClick cell permeability assay; type: in vitro ADME
[2] = test system: pERK in A375 cells (KRAS^WT, BRAF^V600E); assay: Cellular phospho-ERK assay in A375 cells (counter-screen); type: cell-based
[3] = read-out: NanoClick EC50 4 h, 4 h
[4] = read-out: NanoClick EC50 18 h, 18 h

Compound | EC50 [1, 3] [µM] | EC50 [1, 4] [µM] | EC50 ([2]; read-out: A375 pERK EC50 1 h, 1 h treatment) [µM] | EC50 ([2]; read-out: A375 pERK EC50 18 h, 18 h treatment) [µM]
CC[C@H](C)[C@@H]1NC(=O)[C@H](Cc2ccc(O)cc2)NC(=O)[C@H](CC(C)C)NC(=O)[C@@H]2CCCN2C(=O)[C@H](NC(=O)[C@H](CCCCN=[N+]=[N-])NC(C)=O)CSCSC[C@@H](C(=O)N[C@@H](CCCNC(=N)N)C(N)=O)NC(=O)[C@H](C(C)C)NC(=O)[C@@H]2CCCN2C(=O)[C@H](CC(=O)O)NC(=O)[C@H](Cc2ccc(O)cc2)NC(=O)[C@H](CO)NC1=O [Compound 24] | > 10 | 4.46 |  | 
CC[C@H](C)[C@@H]1NC(=O)[C@H](Cc2ccc(O)cc2)NC(=O)[C@H](CC(C)C)NC(=O)[C@@H]2CCCN2C(=O)[C@H](NC(=O)[C@H](CCCCN=[N+]=[N-])NC(C)=O)CSCSC[C@@H](C(N)=O)NC(=O)[C@H](C(C)C)NC(=O)[C@@H]2CCCN2C(=O)[C@H](CC(=O)O)NC(=O)[C@H](Cc2ccc(O)cc2)NC(=O)[C@H](CO)NC1=O [Compound 25] | > 10 | 5.14 |  | 
CC[C@H](C)[C@@H]1NC(=O)[C@H](Cc2ccc(O)cc2)NC(=O)[C@H](CC(C)C)NC(=O)[C@@H]2CCCN2C(=O)[C@H](NC(=O)[C@H](CCCNC(=N)N)NC(=O)[C@H](CCCNC(=N)N)NC(=O)[C@H](CCCCN=[N+]=[N-])NC(C)=O)CSCSC[C@@H](C(=O)N[C@@H](CCCNC(=N)N)C(=O)N[C@@H](CCCNC(=N)N)C(N)=O)NC(=O)[C@H](C(C)C)NC(=O)[C@@H]2CCCN2C(=O)[C@H](CC(=O)O)NC(=O)[C@H](Cc2ccc(O)cc2)NC(=O)[C@H](CO)NC1=O [MP-1687] | 4.55 | 4.71 |  | 
CC[C@H](C)[C@@H]1NC(=O)[C@H](Cc2ccc(O)cc2)NC(=O)[C@H](CC(C)C)NC(=O)[C@@H]2CCCN2C(=O)[C@H](NC(=O)[C@@H](CCCNC(=N)N)NC(=O)[C@@H](CCCNC(=N)N)NC(=O)[C@@H](CCCNC(=N)N)NC(=O)[C@@H](CCCNC(=N)N)NC(=O)[C@H](CCCCN=[N+]=[N-])NC(C)=O)CSCSC[C@@H](C(=O)N[C@H](CCCNC(=N)N)C(=O)N[C@H](CCCNC(=N)N)C(=O)N[C@H](CCCNC(=N)N)C(=O)N[C@H](CCCNC(=N)N)C(N)=O)NC(=O)[C@H](C(C)C)NC(=O)[C@@H]2CCCN2C(=O)[C@H](CC(=O)O)NC(=O)[C@H](Cc2ccc(O)cc2)NC(=O)[C@](C)(CO)NC1=O [MP-3995] | 1.78 | 0.0321 | > 50 | > 50
